# Binding of CDR-mutated scFvs to a peptide of the spike HR2 region

The measurements come from Li et al. 2023 (doi:10.1038/s41467-023-39022-2) through the FLAb antibody collection.

Target: peptide PDVDLGDISGINAS, taken from heptad repeat 2 (HR2) of SARS-CoV-2 spike.

Each scFv is VH, a 15-residue (Gly4Ser)3 linker, VL, as in the parent Ab-14, and differs from it in the CDRs of the light chain only.
VH: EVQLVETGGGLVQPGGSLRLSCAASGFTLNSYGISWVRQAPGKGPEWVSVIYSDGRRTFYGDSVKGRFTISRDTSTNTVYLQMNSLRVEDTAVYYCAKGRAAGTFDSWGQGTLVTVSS
VL: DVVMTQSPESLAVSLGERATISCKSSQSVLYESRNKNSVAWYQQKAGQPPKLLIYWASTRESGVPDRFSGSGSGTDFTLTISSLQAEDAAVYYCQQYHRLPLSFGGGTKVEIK

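The starting antibody came from a phage panning campaign against this peptide. This is the validation round: designs drawn from the data on random variants, tested in the same kind of assay. Their group label is 14L_En_Gen (En: ensemble of fine-tuned language models; Gen: genetic algorithm). The scFvs were displayed on barcoded MATa yeast, the peptide on MATalpha yeast. Binding brings cells together so that they mate, and sequencing counts the barcode pairs among the diploids. Scores were corrected for input abundance and mapped to Kd with protein pairs of known affinity run in the same pool. Mating was done six times.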

The parent's light chain CDRs are KSSQSVLYESRNKNSVA, WASTRES, QQYHRLPLS; each variant's own CDRs replace them letter for letter. Values are log10 of the apparent Kd in nM; lower means stronger binding. The mean shown is taken over the replicates in which the pair was detected. Where no diploid with the target was found in that replicate, the entry reads "nd": below detection, most likely a poor binder, though not proof of it.

| CDR-L1 | CDR-L2 | CDR-L3 | log10 Kd, replicates | log10 Kd (nM), mean | empty controls |
|---|---|---|---|---|---|
| HIGTVLEGVNVKGRSVA | QMSTREE | QQYDRLPLS | 0.68 0.28 0.29 0.18 0.18 0.85 | 0.41 | 0 of 18 |
| KISMTSDMELKNRNSVA | ELVTRMN | QQYNRLPLS | 0.21 0.55 0.63 0.37 0.21 0.64 | 0.43 | 0 of 18 |
| KLSMITGHMSMSRNNVA | EMETREN | QQYDRLPLS | 0.86 0.85 0.73 0.47 0.59 1.09 | 0.76 | 0 of 18 |
| MMSQVTGMESKQRNNVA | QTSTREA | QQYDRLPLI | 0.86 0.35 0.30 -0.06 0.40 0.18 | 0.34 | 0 of 18 |
| TISQMTSLFSQSINNVA | EVSCREP | QQYDRLPLA | 2.94 nd 1.74 2.53 2.18 nd | 2.35 | 1 of 18 (2.10) |
| KITATMRFEQKNSNNIA | EVTTRTK | QQYVRLPLA | nd nd nd nd nd nd | nd | 0 of 18 |
| MISQLYNMGQFAINSVA | QASERSE | QQYDRLPLI | 1.79 1.31 0.90 1.40 1.88 1.73 | 1.50 | 1 of 18 (2.63) |
| KISMLSENQLKNRNSVA | ELVTRLN | QQYNRLPLS | 1.38 0.84 0.99 0.41 0.31 1.36 | 0.88 | 0 of 18 |
| MVTQMAMTGMKNKRSVA | NAETRET | QQYHRLPLI | 1.04 1.04 1.09 1.09 0.21 0.99 | 0.91 | 0 of 18 |
| KLSGIMRVESKVSNSIA | EMTTRGE | QQYDRLPLS | 1.26 0.92 0.74 1.29 1.55 1.36 | 1.18 | 0 of 18 |
| MISQLYNMGQFAINSVA | QASIRNQ | QQYDRLPLA | 0.65 0.52 0.65 0.12 0.54 0.66 | 0.52 | 0 of 18 |
| KLTMISGTEKVHGNNVA | EMETRER | QQYNRLPLA | -0.22 0.56 -0.21 -0.66 -0.30 0.07 | -0.13 | 0 of 18 |
| TISQMTSSFTQNINNVA | EVSTRCK | QQYDRLPLA | 1.20 0.78 0.04 0.32 -0.29 2.19 | 0.71 | 0 of 18 |
| MVHQLMLWGLHAKNSIA | EAQTRLN | QQYDRLPLF | nd nd nd nd nd nd | nd | 0 of 18 |
| KVSEFMRGLMQHKDSIA | DNVTRNK | QQYDRLPLS | 2.41 2.51 1.67 2.38 2.14 1.70 | 2.14 | 1 of 18 (4.74) |
| KISQMTRVGMTHSNSIA | EEVTRAK | QQYHRLPLF | 1.94 0.97 1.07 0.98 1.25 1.27 | 1.25 | 0 of 18 |
| MVTQLMLWGWHAKNSIA | EAQTRLN | QQYDRLPLF | nd nd nd nd nd nd | nd | 0 of 18 |
| MMSSLMGYESRHINNVA | QTSTREQ | QQYDRLPLV | 0.23 0.18 -0.01 0.05 0.12 0.14 | 0.12 | 1 of 18 (2.39) |
| TISQTLMYGMRNRSNVA | EVSERLN | QQYDRLPLM | 0.62 0.75 2.13 1.22 1.70 0.95 | 1.23 | 0 of 18 |
| TLYGLSNSMSKNKNSVA | EMTTREK | QQYDRLPLM | 1.04 1.01 0.91 0.98 0.65 1.02 | 0.94 | 1 of 18 (3.23) |
| TIGQTLMIGTRNRSNVA | EVSERLN | QQYDRLPLM | 0.89 0.83 0.89 0.62 0.53 0.64 | 0.73 | 1 of 18 (3.01) |
| MISQMYNMGQFAINSVA | QASERNN | QQYDRLPLI | 0.42 0.52 0.66 0.67 0.44 0.55 | 0.54 | 0 of 18 |
| KLSSITGTEKVHGNNVA | EMETRER | QQYNRLPLA | nd nd nd nd nd nd | nd | 1 of 18 (1.52) |
| IVSQLMLWGMHVKNSIA | EAQTRLN | QQYDRLPLI | nd nd nd nd nd nd | nd | 0 of 18 |
| KLYDMSAVTMSNIRNVA | DNTTREQ | QQYHRLPLS | nd nd nd 1.33 1.75 1.92 | 1.67 | 0 of 18 |
| HLGLATMLEEYVRNSVA | NNSTRED | QQYDRLPLS | 2.65 2.70 1.46 nd 2.83 nd | 2.41 | 0 of 18 |
| MLSQMWAIGLKVSNSVA | QASMRFN | QQYDRLPLI | nd nd 2.14 2.93 1.92 nd | 2.33 | 0 of 18 |
| KFSQMANSMSVSHSAVA | EMSTRED | QQYNRLPLA | nd nd nd -0.75 nd nd | -0.75 | 0 of 18 |
| TISQMSQLFSQTINNVA | EVSTRLN | QQYDRLPLS | 1.76 0.78 0.87 1.42 0.96 0.94 | 1.12 | 3 of 18 (2.18) |
| IVSQLMMWGMHAKNSIA | EAQTRLN | QQYERLPLF | nd nd 2.12 nd 3.92 nd | 3.02 | 0 of 18 |
| HLGLVTMLESTVRNSVA | NNSTREE | QQYDRLPLS | nd 2.05 1.90 nd 2.60 nd | 2.19 | 3 of 18 (2.83) |
| TISGMTNQAMSKHNSVA | NVTMRPQ | QQYARLPLS | 3.00 1.61 1.91 1.17 1.84 0.84 | 1.73 | 2 of 18 (2.30) |

A selection of 3 entries from above:

| CDR-L1 | CDR-L2 | CDR-L3 | log10 Kd, replicates | log10 Kd (nM), mean | empty controls |
|---|---|---|---|---|---|
| TISQTLMYGMRNRSNVA | EVSERLN | QQYDRLPLM | 0.62 0.75 2.13 1.22 1.70 0.95 | 1.23 | 0 of 18 |
| KLSMITGHMSMSRNNVA | EMETREN | QQYDRLPLS | 0.86 0.85 0.73 0.47 0.59 1.09 | 0.76 | 0 of 18 |
| MISQLYNMGQFAINSVA | QASIRNQ | QQYDRLPLA | 0.65 0.52 0.65 0.12 0.54 0.66 | 0.52 | 0 of 18 |

Nonspecific signal, from three strains lacking the peptide, appeared in 4% of pairings of all light chain designs, centred on 2.64 (5% of these signals below 1.59); values are not corrected for it. For each scFv, signals with the empty controls are counted beside the result, with their mean in brackets. In the paper, a design with two or fewer of six values counts as a poor binder. The range of this assay differs from that of the first round, and the authors advise against merging the two. The parent sequence was in this pool as ten entries: three were never detected, three once, and four in most replicates, with averages from 0.34 to 2.37.